Target: hENPP2 (UniProtKB/SwissProt Sequence ref Q13822) (Homo sapiens (Human), UniProt Q13822)
Test: Human ENPP2 (hENPP2) biochemical assay, LPC as substrate
Conditions: hENPP2, LPC (palmitoyl 16:0) as substrate
Experimental: The principle of the assay consists in quantifying the released choline with an enzymatic method using choline oxidase and peroxidase. Choline oxydation by choline oxydase releases betaine and peroxide. The latter is quantified in presence of HRP that converts the peroxide detection agent TOOS and 4-aminoantipyrine into quinoneimine dye. The appearance of quinoneimine dye is measured spectrophotometrically at 555 nm and is proportional to the amount of choline released by ENPP2. Inhibition of ENPP2 will result in a decrease of the signal.
Compound IC50 values are determined in a hENPP2 (UniProtKB/SwissProt Sequence ref Q13822) biochemical assay using LPC as substrate.
The enzyme is diluted in 50 mM Tris-HCl pH 8.5, 500 mM NaCl, 5 mM KCl, 10 mM CaCl2, 0.1% fatty acid free BSA in a total volume of 10 μL. the reaction is started by the addition of 10 μL of 150 μM LPC (palmitoyl 16:0) diluted in the same buffer as described above and the mixture is incubated at 37° C. for 30 min. The reaction is terminated and choline quantified by the addition of a 25 μL of a mixture containing 0.6 U/mL of choline oxidase, 0.6 U/mL of peroxydase, 1.8 mM TOOS, 1.2 mM amino-antipyrine, 20 mM EGTA (stop-developer solution) diluted in the buffer described above. Luminescence is read on the Envision after an incubation of 30 min at room temperature (Excitation 555 nm, excitation light=70%).

With “{2-[4-(2-Ethyl-3-{[4-(4-fluoro-phenyl)-thiazol-2-yl]-methyl-amino}-imidazo[1,2-a]pyridin-6-yl)-piperazin-1-yl]-4,5-dihydro-oxazol-5-yl}-methanol [Compound 222]” the IC50 was 500 to 1000 nM.

From patent US11072611B2, “Compounds and pharmaceutical compositions thereof for the treatment of inflammatory disorders” (Galapagos NV, priority 2013, dated 2021)
